# Assay results from patent publication US9579346B2.
# Assays:
# normal PBMCs = assay: Two chamber migration study of PBMCs towards chemoattractant; details: 300 micromolar, 4 hours, 10% FBS as chemoattractant
# [1] = system: normal peripheral blood mononuclear cells (PBMC); assay: CD16 expression on CD14+ cells of normal PBMCs, flow cytometry; details: five samples of normal PBMCs, various concentrations, three days
# CD14+ cells = assay: CD16 expression in CD14+ cells and monocyte toxicity, various compounds (FIG. 8); details: 300 micromolar concentration (FIG. 8)
# EAE mice = assay: Experimental Autoimmune Encephalomyelitis (EAE) mouse model of multiple sclerosis; details: chlorite injections, planned experiment
substance,measurement,setting,value
sodium chlorite,migration response of PBMCs to chemoattractants (chemotaxis index),normal PBMCs,blocked the migration response
same,median CD16 expression levels on CD14+ cells (CD14CD16 on PBMCs),[1],decreased
same,CD16 expression in CD14+ cells,CD14+ cells,decreased
same,treating EAE in mice,EAE mice,effective
